From patent US10918643B2, “No-donors for the treatment of cerebrovascular vasospasms after brain hemorrhage” (Westfaelische Wilhelms-Universitaet Muenster, priority 2015, dated 2021) come the findings set out here.

The series in a line: Monitoring of MAP, ICP and side effects in the SAH patient. The conditions noted are these: each SNP bolus. It is filed as in vivo, human.

Some compounds may have been tested in ways that are not shown here.

sodium nitroprusside: the “met-hemoglobin in blood gases / clinical signs of cyanide poisoning” value is given as “without a rise of met-hemoglobin in blood gases or clinical signs of cyanide poisoning”.
